This data set relates to peritoneal macrophages. To be noted: 100 μg/ml, after 3 weeks of continuous culture.

As for dextrin 2-sulphate, the “accumulation in cultured cells” value is given as “only found to accumulate in peritoneal macrophages”.

For the substance dextrin 6-sulphate, the “accumulation in cultured cells” value is “only found to accumulate in peritoneal macrophages”.

(Values after US6689764B1, “Treatment of angiogenesis dependent conditions with dextrin sulphate” (priority 1999, dated 2004).)
